Experimental findings from patent US10155743B2, “Glutarimide derivatives, use thereof, pharmaceutical composition based thereon and methods for producing glutarimide derivatives” (OBSCHESTVO S OGRANICHENNOI OTVETSTVENNOSTIYU …, priority 2013, dated 2018) are described below.

Where two headings read alike, the source gives them in different places.

For the assay, the system named is human virus hRSV adapted to the growth in mouse lungs. Briefly: animal or person. It counts as in vivo. To be noted: for log reduction at 40 mg/kg: human respiratory syncytial virus, po.
Where [1] appears, read: Ribavirin 40 mg/kg (reference preparation), M ± SD, n = 6.
Setting [2] is: Ribavirin 40 mg/kg, lung suspension titrated in Hep-2 cell culture.

With `NC(=O)c1ncn([C@@H]2O[C@H](CO)[C@@H](O)[C@H]2O)n1` [Ribavirin, reference compound], under setting [1], the “Body weight of the mice after infection with hRSV, Day 5” value was 16.20 ± 0.24 and the “Body weight of the mice after infection with hRSV, Day 7” value is 17.23 ± 0.22. In addition, under setting [2], the “hRSV viral titer in mouse lungs, Day 5, lg” value was determined as 2.1 ± 0.12 lg and the “hRSV viral titer in mouse lungs, Day 7, lg” value is on record as 1.15 ± 0.12 lg. Moreover, the log reduction at 40 mg/kg (120 h, read-out: Suppression of the reproduction of hRSV virus in mouse lungs, Day 5, Δlg) was 2.4 ± 0.12. In addition, under “168 h, read-out: Suppression of the reproduction of hRSV virus in mouse lungs, Day 7, Δlg”, the log reduction at 40 mg/kg was determined as 2.4 ± 0.12.
